Reference: US20230322953A1 (HARBOUR BIOMED SHANGHAI, published 2023)
Blank lines part the entries; values can stand above or below the binder they belong to.

Sequences of proteins named here, by UniProt entry; tags and fusion partners are left off. Residues count along the entry.
UniProt P16410, 36-223: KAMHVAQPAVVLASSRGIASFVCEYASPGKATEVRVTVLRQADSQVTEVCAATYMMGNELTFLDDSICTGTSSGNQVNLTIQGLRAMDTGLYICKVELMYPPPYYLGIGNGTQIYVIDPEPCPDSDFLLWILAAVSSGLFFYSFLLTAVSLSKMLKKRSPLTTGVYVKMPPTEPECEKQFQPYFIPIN

Target: T1, human CTLA4 on CHO-K1/hCTLA4 cells (human, UniProt P16410, in part)
T1 construct: whole, on cells; CHO-K1 cell line highly expressing human CTLA4; also called human CTLA4 cell
Assay: flow cytometry on CHO-K1/hCTLA4 cells, Experiment 2

- EC50: 1.58 nM
- Maximum MFI: 1050 MFI
B1: HER2xCTLA4 bispecific antibody molecule PR001585 (bispecific antibody, human IgG1, kappa)
light: EVQLVESGGGLIQPGGSLRLSCAVSGFTVSKNYMSWVRQAPGKGLEWVSVVYSGGSKTYADSVKGRFTISRDNSKNTLYLQMNSLRAEDTAVYYCARAVPHSPSSFDIWGQGTMVTVSSKLEPKSSDKTHTPPPPPAS[about 200 residues not given here]
heavy: EVQLVESGGGLIQPGGSLRLSCAVSGFTVSKNYMSWVRQAPGKGLEWVSVVYSGGSKTYADSVKGRFTISRDNSKNTLYLQMNSLRAEDTAVYYCARAVPHSPSSFDIWGQGTMVTVSSKLEPKSSDKTHTPPPPPRT[about 450 residues with a human IgG1 Fc not given here]
notes: Structure 9 2xVH-IgG(HC+LC) (hexavalent symmetric); PR000210 IgG, PR000184 VH; first linker KL-H1_15-AS, second linker KL-H1_15-RT; Fc human IgG1

- EC50: 1.72 nM
- Maximum MFI: 1040 MFI
B2: HER2xCTLA4 bispecific antibody molecule PR001587 (bispecific antibody, human IgG1, kappa)
light: EVQLVESGGGLIQPGGSLRLSCAVSGFTVSKNYMSWVRQAPGKGLEWVSVVYSGGSKTYADSVKGRFTISRDNSKNTLYLQMNSLRAEDTAVYYCARAVPHSPSSFDIWGQGTMVTVSSKLEPKSSDKTHTPPPPPAS[about 200 residues not given here]
heavy: EVQLVESGGGLIQPGGSLRLSCAVSGFTVSKNYMSWVRQAPGKGLEWVSVVYSGGSKTYADSVKGRFTISRDNSKNTLYLQMNSLRAEDTAVYYCARAVPHSPSSFDIWGQGTMVTVSSKLEPKSSDKTHTPPPPPRT[about 120 residues not given here][about 100 residues not given here][human IgG1 Fc with changes not given here]
notes: Structure 9 2xVH-IgG; PR000210 IgG, PR000184 VH; first linker KL-H1_15-AS, second linker KL-H1_15-RT; Fc human IgG1 (S239D, I332E)
